In US9415009B2 (Pearl Therapeutics, Inc., priority 2009, dated 2016):

Experiment: Particle size distribution by laser diffraction (Sympatec, Fraunhofer mode)
Assay type: physicochemical
[1] = Example 4, Table 2, micronized API
[2] = Example 9, Table 9, primary particle size
[3] = Example 10, Table 11, Triple GFM primary particle size
[4] = Example 10, Table 12, Triple TFM primary particle size

| SMILES | d10 (μm) [1] [μm] | d50 (μm) [1] [μm] | d90 (μm) [1] [μm] | ×10 (μm) [2] [μm] | ×50 (μm) [2] [μm] | ×90 (μm) [2] [μm] | d10 (μm) [3] [μm] | d50 (μm) [3] [μm] | d90 (μm) [3] [μm] | d10 (μm) [4] [μm] | d50 (μm) [4] [μm] | d90 (μm) [4] [μm] | d10 (μm) (Example 11, Table 14) | d50 (μm) (Example 11, Table 14) | d90 (μm) (Example 11, Table 14) |
| --- | --- | --- | --- | --- | --- | --- | --- | --- | --- | --- | --- | --- | --- | --- | --- |
| COc1ccc(C[C@@H](C)NC[C@H](O)c2ccc(O)c(NC=O)c2)cc1 (racemic) [Coarse FF API, (±)-2-hydroxy-5-[(1RS)-1-hydroxy-2-[[(1RS)-2-(4-methoxyphenyl)-1-methylethyl]-amino]ethyl]formanilide] | 0.6 | 1.9 | 4.4 |  |  |  |  |  |  |  |  |  |  |  |  |
| COc1ccc(C[C@@H](C)NC[C@H](O)c2ccc(O)c(NC=O)c2)cc1 (racemic) [Fine FF API, (±)-2-hydroxy-5-[(1RS)-1-hydroxy-2-[[(1RS)-2-(4-methoxyphenyl)-1-methylethyl]-amino]ethyl]formanilide] | 0.5 | 1.3 |  |  |  |  |  |  |  |  |  |  |  |  |  |
| COc1ccc(C[C@@H](C)NC[C@H](O)c2ccc(O)c(NC=O)c2)cc1 (racemic) [FF API, (±)-2-hydroxy-5-[(1RS)-1-hydroxy-2-[[(1RS)-2-(4-methoxyphenyl)-1-methylethyl]-amino]ethyl]formanilide] |  |  |  | 0.6 | 1.9 | 4.1 | 0.5 | 1.4 | 2.7 | 0.6 | 1.9 | 4.1 | 0.6 | 1.9 | 4.1 |
